# Biological target: CYP3A (Homo sapiens, UniProt P08684)
# By UniProt entry, the sequences of proteins in these tests, tags left out. Residues count along the entry.
# UniProt P08684, 2-503: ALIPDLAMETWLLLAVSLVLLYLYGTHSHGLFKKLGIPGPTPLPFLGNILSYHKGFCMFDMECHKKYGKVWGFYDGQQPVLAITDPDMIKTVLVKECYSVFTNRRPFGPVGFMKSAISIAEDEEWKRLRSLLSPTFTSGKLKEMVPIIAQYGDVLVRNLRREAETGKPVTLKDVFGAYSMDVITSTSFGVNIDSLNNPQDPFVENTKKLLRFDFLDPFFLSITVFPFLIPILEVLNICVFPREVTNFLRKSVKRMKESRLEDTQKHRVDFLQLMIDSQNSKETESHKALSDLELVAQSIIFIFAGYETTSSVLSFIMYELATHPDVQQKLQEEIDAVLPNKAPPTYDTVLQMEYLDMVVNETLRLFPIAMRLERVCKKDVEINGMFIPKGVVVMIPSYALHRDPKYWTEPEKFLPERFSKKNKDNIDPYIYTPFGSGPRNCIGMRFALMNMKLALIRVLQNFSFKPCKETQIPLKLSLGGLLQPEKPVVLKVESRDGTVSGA
# Experiment: Inhibition of CYP3A
# Format: in vitro ADME
# Details: pooled HLMs
smiles,measurement,setting,value
"O=C1Nc2ccc(Cl)cc2[C@@](C#CC2CC2)(C(F)(F)F)O1 [efavirenz, Efavirenz]",inhibition of CYP3A activity,"50 μM efavirenz, 10 μM testosterone",40%
same,inhibition model,substrate testosterone,competitive

# Reference: article PMC4075192 (Drug metabolism and pharmacokinetics, 2013)
